The test system of one series is MOLP-8 xenografts. Description: MOLP-8 xenograft in NSG mice. The series is classed as in vivo. As to conditions: E2 10 mg/kg, E4 5 mg/kg, unconjugated Hu34C3 10 mg/kg. Here is the method: L-363, MM1.S and MOLP-8 xenografts were prepared and studies conducted as generally described in Example 12. NSG mice (NOD.Cg-Prkdcscid Il2rgtm1Wj1/SzJ) from The Jackson Laboratory (strain code 05557) were used. This strain lacks effector cells and eliminates the ADCC mechanism for all antibodies. Using this strain permits evaluation of Hu34C3-MMAE E2 and Hu34C3-MMAE E4 ADC activity independently of ADCC activity. […]. Dosing of test ADCs was normalized such that equal masses of the MMAE component were delivered, with 2-fold differences in the IgG component (i.e., Hu34C3-MMAE E2 was dosed at 10 mg/kg; Hu34C3-MMAE E4 was dosed at 5 mg/kg.) Results are shown in FIGS. 23A-23C.

The next series has as its system rat CS1. The series is described as follows: Binding to rat CS1.
The nature of series [1]: Non-GLP dose range-finding study in cynomolgus monkeys. The series is classed as in vivo. The following applies: 24 mg/kg, 30-minute IV infusion Q3W, 2 doses. Here is the method:
In a non-GLP dose range-finding study, Hu34C3-MMAE E2 was administered to cynomolgus monkeys via 30-minute IV infusion at every 3 week (Q3W) dose interval for a total of 2 doses (Day 1 and Day 22), with necropsy on Day 29.

B1: Hu34C3 (antibody)
heavy: EVQLVESGGGLVQPGGSLRLSCAASGFTFSDYYMAWVRQAPGKGLEWVASINYDGSSTYYVDSVKGRFTISRDNAKNSLYLQMNSLRAEDTAVYYCARDRGYYFDYWGQGTTVTVSSASTKGPSVFPLAPSSKSTSGGTAALGCLVKDYFPEPVTVSWNSGALTSGVHTFPAVLQSSGLYSLSSVVTVPSSSLGTQTYICNVNHKPSNTKVDKKV[human IgG1 Fc not written out]
light: DVVMTQTPLSLSVTPGQPASISCRSSQSLVHSNGNTYLHWYLQKPGQSPQLLIYKVSNRFSGVPDRFSGSGSGTDFTLKISRVEAEDVGVYFCSQSTHVPPFTFGGGTKVEIKRTVAAPSVFIFPPSDEQLKSGTASVVCLLNNFYPREAKVQWKVDNALQSGNSQESVTEQDSKDSTYSLSSTLTLSKADYEKHKVYACEVTHQGLSSPVTKSFNRGEC
B1: the “Anti tumor activity (tumor volume)” value in the series on MOLP-8 xenografts was “no activity”. Besides, the “Binding to rat CS1” value in the series on rat CS1 is “does not bind to rat CS1”. Besides, in series [1], the “Summary Observations” value is given as “No remarkable changes”.

The values above are taken from patent publication US10011657B2, “Anti-CS1 antibodies and antibody drug conjugates” (AbbVie Biotherapeutics Inc., priority 2014, dated 2018).
